{
  "source": "patent US10499641B2",
  "about": "(priority 2010, dated 2019)",
  "data": [
    {"conditions": "LC-MS, acidic range, pH 2.7, 0.1% aqueous formic acid and acetonitrile", "values": [
      {"smiles": "O=C(Cn1nc(C(F)F)cc1C(F)F)N1CCC(c2nc(C3=NOC(c4ccccc4C=NO)C3)cs2)CC1", "note": "(mixture of isomers) [Example I-4]", "logp [a]": "2.77[a]"},
      {"smiles": "CC(=NOC(C)C)c1ccccc1C1CC(c2csc(C3CCN(C(=O)Cn4nc(C(F)(F)F)cc4C)CC3)n2)=NO1", "note": "(mixture of isomers) [Example I-30]", "logp [a]": "4.44[a]"},
      {"smiles": "CCON=Cc1cccc(C2CC(c3csc(C4CCN(C(=O)Cn5nc(C(F)F)cc5C(F)F)CC4)n3)=NO2)c1", "note": "(mixture of isomers) [Example I-24]", "logp [a]": "3.71[a]"},
      {"smiles": "Cc1cc(C(F)(F)F)nn1CC(=O)N1CCC(c2nc(C3=NOC(c4cccc(C=NO)c4)C3)cs2)CC1", "note": "(mixture of isomers) [Example I-10]", "logp [a]": "2.63[a]"},
      {"smiles": "CCON=Cc1ccccc1C1CC(c2csc(C3CCN(C(=O)Cn4nc(C(F)F)cc4C(F)F)CC3)n2)=NO1", "note": "(mixture of isomers) [Example I-27]", "logp [a]": "3.91[a]"},
      {"smiles": "CON=Cc1cccc(C2CC(c3csc(C4CCN(C(=O)Nc5cc(Cl)ccc5C)CC4)n3)=NO2)c1", "note": "(mixture of isomers) [Example I-19]", "logp [a]": "3.76[a]"},
      {"smiles": "Cc1cc(C(F)(F)F)nn1CC(=O)N1CCC(c2nc(C3=NOC(c4cccc(C=NOC(C)C)c4)C3)cs2)CC1", "note": "(mixture of isomers) [Example I-8]", "logp [a]": "4.15[a]"},
      {"smiles": "Cc1cc(C(F)(F)F)nn1CC(=O)N1CCC(c2nc(C3=NOC(c4ccccc4C=NOC(C)C)C3)cs2)CC1", "note": "(mixture of isomers) [Example I-39]", "logp [a]": "4.37[a]"},
      {"smiles": "CON=C(C)c1ccccc1C1CC(c2csc(C3CCN(C(=O)Cn4nc(C(F)F)cc4C(F)F)CC3)n2)=NO1", "note": "(mixture of isomers) [Example I-32]", "logp [a]": "3.64[a]"},
      {"smiles": "CON=Cc1cccc(C2CC(c3csc(C4CCN(C(=O)Cn5nc(C(F)(F)F)cc5C)CC4)n3)=NO2)c1", "note": "(mixture of isomers) [Example I-15]", "logp [a]": "3.45[a]"},
      {"smiles": "CON=C(C)c1ccccc1C1CC(c2csc(C3CCN(C(=O)Cn4nc(C(F)(F)F)cc4C)CC3)n2)=NO1", "note": "(mixture of isomers) [Example I-31]", "logp [a]": "3.73[a]"},
      {"smiles": "CON=Cc1cccc(C2CC(c3csc(C4CCN(C(=O)Cn5nc(C(F)F)cc5C(F)F)CC4)n3)=NO2)c1", "note": "(mixture of isomers) [Example I-16]", "logp [a]": "3.38[a]"},
      {"smiles": "CCON=Cc1cccc(C2CC(c3csc(C4CCN(C(=O)Nc5cc(Cl)ccc5C)CC4)n3)=NO2)c1", "note": "(mixture of isomers) [Example I-12]", "logp [a]": "4.06[a]"},
      {"smiles": "CC(C)(C)OC(=O)Nc1ccc(C2CC(c3csc(C4CCN(C(=O)Cn5nc(C(F)F)cc5C(F)F)CC4)n3)=NO2)cc1", "note": "(stereo not shown) [Example I-17, tert-Butyl (4-{3-[2-(1-{[3,5-bis(difluoromethyl)-1H-pyrazol-1-yl]acetyl}piperidin-4-yl)-1,3-thiazol-4-yl]-4,5-dihydro-1,2-oxazol-5-yl}phenyl)carbamate]", "logp [a]": "3.45[a],"},
      {"smiles": "C[Si](C)(C)C#CCOc1ccccc1C1CC(c2csc(C3CCN(C(=O)Cn4nc(C(F)F)cc4C(F)F)CC3)n2)=NO1", "note": "(stereo not shown) [Example I-1, 2-[3,5-Bis(difluoromethyl)-1H-pyrazol-1-yl]-1-(4-{4-[5-(2-{[3-(trimethylsilyl)prop-2-yn-1-yl]oxy}phenyl)-4,5-dihydro-1,2-oxazol-3-yl]-1,3-thiazol-2-yl]piperidin-1-yl}ethanone]", "logp [a]": "4.71[a],"},
      {"smiles": "Cc1ccc(Cl)cc1NC(=O)N1CCC(c2nc(C3=NOC(c4cccc(C=NO)c4)C3)cs2)CC1", "note": "(mixture of isomers) [Example I-14]", "logp [a]": "2.79[a]"},
      {"smiles": "CON=C(C)c1cccc(C2CC(c3csc(C4CCN(C(=O)Nc5cc(Cl)ccc5C)CC4)n3)=NO2)c1", "note": "(mixture of isomers) [Example I-23]", "logp [a]": "3.99[a]"},
      {"smiles": "Cc1ccc(Cl)cc1NC(=O)N1CCC(c2nc(C3=NOC(c4ccccc4C=NOC(C)C)C3)cs2)CC1", "note": "(mixture of isomers) [Example I-37]", "logp [a]": "4.67[a]"},
      {"smiles": "O=C(Cn1nc(C(F)F)cc1C(F)F)N1CCC(c2nc(C3=NOC(c4cccc(C=NO)c4)C3)cs2)CC1", "note": "(mixture of isomers) [Example I-22]", "logp [a]": "2.57[a]"},
      {"smiles": "O=C(Cn1nc(C(F)F)cc1C(F)F)N1CCC(c2nc(C3=NOC(c4ccccc4C=NO)C3)cs2)CC1", "note": "(mixture of isomers) [Example I-35]", "logp [a]": "3.01[a]"},
      {"smiles": "CON=C(C)c1cccc(C2CC(c3csc(C4CCN(C(=O)Cn5nc(C(F)F)cc5C(F)F)CC4)n3)=NO2)c1", "note": "(mixture of isomers) [Example I-21]", "logp [a]": "3.55[a]"},
      {"smiles": "CC(=NOC(C)C)c1cccc(C2CC(c3csc(C4CCN(C(=O)Cn5nc(C(F)F)cc5C(F)F)CC4)n3)=NO2)c1", "note": "(mixture of isomers) [Example I-20]", "logp [a]": "4.32[a]"},
      {"smiles": "CC(C)ON=Cc1ccccc1C1CC(c2csc(C3CCN(C(=O)Cn4nc(C(F)F)cc4C(F)F)CC3)n2)=NO1", "note": "(mixture of isomers) [Example I-42]", "logp [a]": "4.25[a]"},
      {"smiles": "CC(=NOC(C)C)c1ccccc1C1CC(c2csc(C3CCN(C(=O)Cn4nc(C(F)F)cc4C(F)F)CC3)n2)=NO1", "note": "(mixture of isomers) [Example I-28]", "logp [a]": "4.33[a]"},
      {"smiles": "CC(=NOC(C)C)c1cccc(C2CC(c3csc(C4CCN(C(=O)Cn5nc(C(F)(F)F)cc5C)CC4)n3)=NO2)c1", "note": "(mixture of isomers) [Example I-9]", "logp [a]": "4.46[a]"},
      {"smiles": "CC(C)ON=Cc1cccc(C2CC(c3csc(C4CCN(C(=O)Cn5nc(C(F)F)cc5C(F)F)CC4)n3)=NO2)c1", "note": "(mixture of isomers) [Example I-6]", "logp [a]": "4.06[a]"},
      {"smiles": "CON=Cc1ccccc1C1CC(c2csc(C3CCN(C(=O)Nc4cc(Cl)ccc4C)CC3)n2)=NO1", "note": "(stereo not shown) [Example I-41, N-(5-Chloro-2-methylphenyl)-4-[4-(5-{2-[(methoxyimino)methyl]phenyl}-4,5-dihydro-1,2-oxazol-3-yl)-1,3-thiazol-2-yl]piperidine-1-carboxamide]", "logp [a]": "3.95[a]"},
      {"smiles": "CON=Cc1ccccc1C1CC(c2csc(C3CCN(C(=O)Cn4nc(C(F)F)cc4C(F)F)CC3)n2)=NO1", "note": "(stereo not shown) [Example I-26, 2-{3-[2-(1-{[3,5-Bis(difluoromethyl)-1H-pyrazol-1-yl]acetyl}piperidin-4-yl)-1,3-thiazol-4-yl]-4,5-dihydro-1,2-oxazol-5-yl}benzaldehyde O-methyloxime]", "logp [a]": "3.59[a]"},
      {"smiles": "CCON=C(C)c1cccc(C2CC(c3csc(C4CCN(C(=O)Cn5nc(C(F)F)cc5C(F)F)CC4)n3)=NO2)c1", "note": "(mixture of isomers) [Example I-5]", "logp [a]": "3.92[a]"},
      {"smiles": "Cc1cc(C(F)(F)F)nn1CC(=O)N1CCC(c2nc(C3=NOC(c4ccccc4C=NO)C3)cs2)CC1", "note": "(mixture of isomers) [Example I-38]", "logp [a]": "2.85[a]"},
      {"smiles": "Cc1ccc(Cl)cc1NC(=O)N1CCC(c2nc(C3=NOC(c4ccccc4C=NO)C3)cs2)CC1", "note": "(mixture of isomers) [Example I-36]", "logp [a]": "3.05[a]"},
      {"smiles": "CCON=Cc1ccccc1C1CC(c2csc(C3CCN(C(=O)Nc4cc(Cl)ccc4C)CC3)n2)=NO1", "note": "(mixture of isomers) [Example I-33]", "logp [a]": "4.25[a]"},
      {"smiles": "CC(=NO)c1cccc(C2CC(c3csc(C4CCN(C(=O)Cn5nc(C(F)F)cc5C(F)F)CC4)n3)=NO2)c1", "note": "(mixture of isomers) [Example I-18]", "logp [a]": "2.71[a]"}
    ]},
    {"conditions": "LC-MS, neutral range, pH 7.8, 0.001 molar aqueous ammonium hydrogencarbonate and acetonitrile", "values": [
      {"smiles": "CC(=O)Nc1ccc(C2CC(c3csc(C4CCN(C(=O)Cn5nc(C(F)F)cc5C(F)F)CC4)n3)=NO2)cc1", "note": "(stereo not shown) [Example I-25]", "logp [b]": "2.24[b]"}
    ]}
  ]
}
